Reference: paper PMC10491346, “Enzyme Mechanistic Studies of NMA1982, a Protein Tyrosine Phosphatase and Potential Virulence Factor in Neisseria meningitidis” (Research Square, 2023)

Target: T1, PTP1B (Homo sapiens, UniProt P18031)
T1 construct: gene PTPN1
T1 sequence (P18031 1-435): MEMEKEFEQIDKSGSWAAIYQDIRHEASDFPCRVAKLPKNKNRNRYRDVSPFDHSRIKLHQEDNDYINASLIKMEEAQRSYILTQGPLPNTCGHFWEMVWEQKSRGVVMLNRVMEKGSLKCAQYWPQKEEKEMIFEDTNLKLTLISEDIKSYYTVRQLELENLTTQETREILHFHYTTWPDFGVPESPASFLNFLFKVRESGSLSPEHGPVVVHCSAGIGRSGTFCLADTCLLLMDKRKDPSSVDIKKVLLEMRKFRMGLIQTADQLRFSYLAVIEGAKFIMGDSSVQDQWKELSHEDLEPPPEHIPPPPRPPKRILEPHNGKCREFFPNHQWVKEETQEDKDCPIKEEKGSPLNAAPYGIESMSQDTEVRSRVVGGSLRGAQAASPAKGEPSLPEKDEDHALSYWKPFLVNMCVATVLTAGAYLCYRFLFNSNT
Assay: continuous fluorescence phosphatase assay, Michaelis-Menten fit
Type: biochemical
Details: similar assay setup as for NMA1982 (Bis-Tris pH 6.0, room temperature)

Compound: Cc1cc(=O)oc2c(F)c(OP(=O)(O)O)c(F)cc12 [DiFMUP]
- Km: 4 µM
